Legend:
[1] = tested on: human RCC cell lines (JOHW, PORJC, SAUJ and STAR); format: cell-based
[2] = tested on: human RCC cell lines (JOHW, PORJC, SAUJ and STAR); format: cell-based; remark: listed apart in the source

Compound: CC(C)C[C@H](NC(=O)[C@H](Cc1ccccc1)NC(=O)c1cnccn1)B(O)O [Velcade]
- cell lysis of presensitized RCC cells by Fas ligand (FIG. 14) [1]: Increased cell lysis
- cell lysis of presensitized RCC cells by TRAIL (FIG. 13) [2]: Increased cell lysis
